# Literature values in patent publication US20240009213A1, “TREATMENT FOR VIRAL INFECTION” (priority 2020, published 2024).
# Sequences of proteins named here, by UniProt entry; tags and fusion partners are left off. Residues count along the entry.
# UniProt P29376, 17-864: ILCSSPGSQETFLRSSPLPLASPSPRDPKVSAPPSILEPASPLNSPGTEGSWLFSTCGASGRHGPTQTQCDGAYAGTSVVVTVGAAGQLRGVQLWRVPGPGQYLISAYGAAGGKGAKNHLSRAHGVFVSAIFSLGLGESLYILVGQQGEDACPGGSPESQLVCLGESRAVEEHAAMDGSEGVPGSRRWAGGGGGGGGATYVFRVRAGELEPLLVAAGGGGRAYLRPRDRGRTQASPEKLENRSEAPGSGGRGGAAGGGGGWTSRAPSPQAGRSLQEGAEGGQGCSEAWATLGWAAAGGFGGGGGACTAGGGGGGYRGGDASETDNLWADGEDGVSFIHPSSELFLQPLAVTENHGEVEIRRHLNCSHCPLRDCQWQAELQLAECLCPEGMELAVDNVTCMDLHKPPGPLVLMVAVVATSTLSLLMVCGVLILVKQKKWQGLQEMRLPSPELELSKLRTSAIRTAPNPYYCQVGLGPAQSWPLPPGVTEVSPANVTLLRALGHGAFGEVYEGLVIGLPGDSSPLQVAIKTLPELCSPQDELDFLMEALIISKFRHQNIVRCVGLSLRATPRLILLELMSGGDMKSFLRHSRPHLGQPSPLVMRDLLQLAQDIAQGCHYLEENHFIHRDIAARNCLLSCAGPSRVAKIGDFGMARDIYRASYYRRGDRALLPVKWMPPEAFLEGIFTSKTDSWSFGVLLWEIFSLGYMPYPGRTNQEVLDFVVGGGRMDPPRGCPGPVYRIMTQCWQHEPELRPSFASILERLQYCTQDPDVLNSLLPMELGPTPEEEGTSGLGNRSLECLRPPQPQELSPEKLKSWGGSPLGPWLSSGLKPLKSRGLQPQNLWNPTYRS
# Biological target: LTK (Homo sapiens, UniProt P29376)
# Settings: previous work; cited from earlier work
smiles,measurement,value
C[C@H]1Oc2cc(cnc2N)-c2c(nn(C)c2C#N)CN(C)C(=O)c2ccc(F)cc21 [lorlatinib],activity towards LTK,low activity towards LTK
